{"source": "BindingDB's records for doi:10.1021/jm9804127", "about": "(Glaxo Wellcome Research and Development, 1999)", "target": "T1, Peroxisome proliferator-activated receptor alpha (Homo sapiens, UniProt Q07869)", "T1 sequence (Q07869 whole entry)": "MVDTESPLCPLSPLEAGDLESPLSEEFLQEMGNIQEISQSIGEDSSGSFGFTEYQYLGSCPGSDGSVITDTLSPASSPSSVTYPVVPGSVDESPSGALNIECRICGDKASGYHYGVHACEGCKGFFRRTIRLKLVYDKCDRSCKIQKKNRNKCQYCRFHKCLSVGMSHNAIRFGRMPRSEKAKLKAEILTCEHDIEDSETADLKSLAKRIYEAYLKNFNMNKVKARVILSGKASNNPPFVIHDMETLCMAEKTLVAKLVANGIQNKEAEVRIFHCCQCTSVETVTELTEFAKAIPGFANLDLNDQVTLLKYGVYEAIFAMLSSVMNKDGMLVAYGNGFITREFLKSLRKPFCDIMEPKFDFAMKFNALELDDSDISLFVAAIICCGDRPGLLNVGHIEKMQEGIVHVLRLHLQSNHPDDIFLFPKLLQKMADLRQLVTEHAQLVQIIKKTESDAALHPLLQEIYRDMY", "assay": "The compound was tested in vitro for inhibiting the 50% binding of Peroxisome proliferator activated receptor alpha", "data": [{"smiles": "Cc1oc(-c2ccccc2)nc1CCOc1ccc(C[C@H](Nc2ccccc2C(=O)c2ccccc2)C(=O)O)cc1", "note": "[2-(2-Benzoyl-phenylamino)-3-{4-[2-(5-methyl-2-phenyl-oxazol-4-yl)-ethoxy]-phenyl}-propionic acid(GI 262570)]", "values": [{"measurement": "Ki", "result": 6.31, "unit": "µM"}]}]}
